# Laboratory results from PubChem BioAssay AID642 (Vanderbilt High Throughput Screening Facility, 2007).
# Chains of the proteins cited; added tags and fusions are not shown.
# UniProt P21728, whole entry: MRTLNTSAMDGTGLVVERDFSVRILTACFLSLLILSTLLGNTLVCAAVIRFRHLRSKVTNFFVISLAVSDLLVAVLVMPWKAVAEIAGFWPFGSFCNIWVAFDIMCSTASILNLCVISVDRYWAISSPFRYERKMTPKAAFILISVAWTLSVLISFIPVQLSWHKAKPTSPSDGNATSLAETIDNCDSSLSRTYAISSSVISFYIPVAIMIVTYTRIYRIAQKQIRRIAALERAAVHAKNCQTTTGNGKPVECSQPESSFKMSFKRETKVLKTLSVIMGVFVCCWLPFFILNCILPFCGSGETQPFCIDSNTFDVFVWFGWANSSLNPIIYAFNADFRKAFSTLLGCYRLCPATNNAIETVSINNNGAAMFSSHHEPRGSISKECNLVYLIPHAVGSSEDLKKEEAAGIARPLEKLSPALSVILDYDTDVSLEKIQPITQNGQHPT
# Only a part is listed here, and it is no random draw. The source made the active and inactive calls.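 How the source made its calls: active means luminescence in either of two replicates above the same-plate mean plus 3 SD of the low-dose dopamine control; inactive means the rest.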
# Molecular target: D(1A) dopamine receptor (Homo sapiens) (UniProt P21728)
# Assay: D1 receptor positive allosteric modulators, retest, confirmation, cell-based, HEK293 D1, CRE-luciferase, duplicate (AID 642)
# Conditions: dopamine EC30 potentiation, at 10 µM, stronger effect = higher value
row,Structure (SMILES),luminescence
1,Cc1nc2ccc3ccccc3c2s1.O=[N+]([O-])c1cc([N+](=O)[O-])c(O)c([N+](=O)[O-])c1,active: 7760
